Assay results as given in patent US8445542B2, “Methods of accelerating muscle growth, decreasing fat deposits and improving feed efficiency in livestock animals” (Bridge Pharma, Inc., priority 2006, dated 2013).

What was measured:
[1] = test system: adrenergic beta-receptors; experiment: Receptor binding studies, adrenergic beta-receptors
Source text: Interesting and important advantages of receptor selectivity by RR-ractopamine were found.

[2] = test system: Airway smooth muscle tissues; experiment: Airway smooth muscle contracted by carbachol; conditions: ongoing studies
Source text: Airway smooth muscle tissues were contracted by carbachol. The inhibitory effects of isomers, enantiomeric pairs and a racemic mixture of ractopamine are being investigated.
Test results from these functional studies verify and support the results from the receptor binding studies.

Substance: RR-4-hydroxy-a-[[[3-(4-hydroxyphenyl)-1-methylpropyl]amino]methyl]benzenemethanol [RR-ractopamine]
- affinity for adrenergic beta-receptors, compared among the ractopamine forms [1]: highest affinity
- airway smooth muscle relaxing activity [2]: potent airway smooth muscle relaxing activity
